Reference: PMC11842024, “Reversible male contraception by targeted inhibition of serine/threonine kinase 33” (Science (New York, N.Y.), 2024)
pIC50, pKd, pKi: −log10 of the molar value. Where two headings read alike, the source gives them in different places.

Chains of the proteins cited; added tags and fusions are not shown. Residues count along the entry.
UniProt P49760, whole entry: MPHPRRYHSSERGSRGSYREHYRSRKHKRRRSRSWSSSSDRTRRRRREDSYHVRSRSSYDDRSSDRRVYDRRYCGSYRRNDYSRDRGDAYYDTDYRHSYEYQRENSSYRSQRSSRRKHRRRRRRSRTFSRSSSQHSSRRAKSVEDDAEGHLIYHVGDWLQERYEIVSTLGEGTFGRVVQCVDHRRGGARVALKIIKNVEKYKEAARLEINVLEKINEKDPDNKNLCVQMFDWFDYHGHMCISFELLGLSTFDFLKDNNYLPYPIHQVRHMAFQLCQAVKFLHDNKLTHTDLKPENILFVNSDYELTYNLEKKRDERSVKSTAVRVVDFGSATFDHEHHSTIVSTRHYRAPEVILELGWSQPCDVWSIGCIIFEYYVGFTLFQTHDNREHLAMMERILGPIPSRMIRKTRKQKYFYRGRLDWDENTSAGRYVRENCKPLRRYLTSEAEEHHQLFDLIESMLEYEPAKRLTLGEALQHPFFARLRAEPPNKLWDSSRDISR
UniProt P49759, whole entry: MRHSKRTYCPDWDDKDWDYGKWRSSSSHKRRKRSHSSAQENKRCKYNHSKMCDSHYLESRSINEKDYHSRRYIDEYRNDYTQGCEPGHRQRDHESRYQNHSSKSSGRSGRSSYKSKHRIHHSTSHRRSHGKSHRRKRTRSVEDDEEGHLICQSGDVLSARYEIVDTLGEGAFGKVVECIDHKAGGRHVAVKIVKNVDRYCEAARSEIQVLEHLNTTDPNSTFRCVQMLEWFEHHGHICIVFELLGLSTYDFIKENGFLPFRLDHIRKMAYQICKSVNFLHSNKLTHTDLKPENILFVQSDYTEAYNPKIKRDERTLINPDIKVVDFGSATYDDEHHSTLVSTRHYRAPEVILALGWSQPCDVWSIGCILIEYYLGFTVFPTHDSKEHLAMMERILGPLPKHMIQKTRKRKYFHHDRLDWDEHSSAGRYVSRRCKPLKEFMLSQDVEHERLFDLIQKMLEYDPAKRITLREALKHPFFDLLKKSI
UniProt P07949, 29-1114 limits assumed: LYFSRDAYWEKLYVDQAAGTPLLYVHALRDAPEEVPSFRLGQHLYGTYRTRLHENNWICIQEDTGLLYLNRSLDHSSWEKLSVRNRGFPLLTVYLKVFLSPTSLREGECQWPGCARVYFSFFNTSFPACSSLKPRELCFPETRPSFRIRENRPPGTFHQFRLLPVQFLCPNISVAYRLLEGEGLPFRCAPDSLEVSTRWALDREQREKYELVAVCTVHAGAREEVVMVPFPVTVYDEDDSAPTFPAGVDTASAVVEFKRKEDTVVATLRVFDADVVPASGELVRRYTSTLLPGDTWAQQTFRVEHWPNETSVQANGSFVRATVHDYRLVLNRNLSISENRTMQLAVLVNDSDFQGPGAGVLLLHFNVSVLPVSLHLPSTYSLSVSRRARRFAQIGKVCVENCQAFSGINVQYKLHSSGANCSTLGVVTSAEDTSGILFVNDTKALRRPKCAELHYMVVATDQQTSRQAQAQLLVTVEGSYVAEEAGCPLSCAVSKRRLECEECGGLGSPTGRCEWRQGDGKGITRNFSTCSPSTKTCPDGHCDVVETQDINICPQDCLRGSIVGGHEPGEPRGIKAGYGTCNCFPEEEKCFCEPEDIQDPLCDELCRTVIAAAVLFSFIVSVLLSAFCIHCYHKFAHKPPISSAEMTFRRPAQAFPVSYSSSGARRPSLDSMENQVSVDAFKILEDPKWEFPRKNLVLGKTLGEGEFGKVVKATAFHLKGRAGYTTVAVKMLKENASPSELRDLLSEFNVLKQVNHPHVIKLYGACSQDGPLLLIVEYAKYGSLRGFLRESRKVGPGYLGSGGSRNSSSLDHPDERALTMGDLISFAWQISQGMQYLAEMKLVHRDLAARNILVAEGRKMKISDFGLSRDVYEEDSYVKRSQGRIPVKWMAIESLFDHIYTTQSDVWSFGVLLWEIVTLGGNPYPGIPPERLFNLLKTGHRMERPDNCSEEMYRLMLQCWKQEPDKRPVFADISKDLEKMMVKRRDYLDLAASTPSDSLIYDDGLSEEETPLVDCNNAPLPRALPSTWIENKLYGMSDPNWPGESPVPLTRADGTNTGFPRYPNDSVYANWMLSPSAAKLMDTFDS
UniProt Q9BYT3, whole entry: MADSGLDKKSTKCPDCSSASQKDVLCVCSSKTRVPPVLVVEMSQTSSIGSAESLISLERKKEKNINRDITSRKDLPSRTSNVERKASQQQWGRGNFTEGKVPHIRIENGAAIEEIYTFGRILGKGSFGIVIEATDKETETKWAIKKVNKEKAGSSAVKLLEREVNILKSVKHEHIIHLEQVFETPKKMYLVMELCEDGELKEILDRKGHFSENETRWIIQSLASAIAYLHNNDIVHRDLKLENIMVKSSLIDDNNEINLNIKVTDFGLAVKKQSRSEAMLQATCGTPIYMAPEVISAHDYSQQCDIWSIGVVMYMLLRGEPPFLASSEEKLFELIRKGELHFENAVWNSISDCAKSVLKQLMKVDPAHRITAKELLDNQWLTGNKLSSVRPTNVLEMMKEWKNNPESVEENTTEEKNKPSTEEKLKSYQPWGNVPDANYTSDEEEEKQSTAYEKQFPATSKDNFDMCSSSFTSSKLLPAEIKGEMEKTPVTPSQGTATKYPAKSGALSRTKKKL
UniProt Q9HAZ1, whole entry: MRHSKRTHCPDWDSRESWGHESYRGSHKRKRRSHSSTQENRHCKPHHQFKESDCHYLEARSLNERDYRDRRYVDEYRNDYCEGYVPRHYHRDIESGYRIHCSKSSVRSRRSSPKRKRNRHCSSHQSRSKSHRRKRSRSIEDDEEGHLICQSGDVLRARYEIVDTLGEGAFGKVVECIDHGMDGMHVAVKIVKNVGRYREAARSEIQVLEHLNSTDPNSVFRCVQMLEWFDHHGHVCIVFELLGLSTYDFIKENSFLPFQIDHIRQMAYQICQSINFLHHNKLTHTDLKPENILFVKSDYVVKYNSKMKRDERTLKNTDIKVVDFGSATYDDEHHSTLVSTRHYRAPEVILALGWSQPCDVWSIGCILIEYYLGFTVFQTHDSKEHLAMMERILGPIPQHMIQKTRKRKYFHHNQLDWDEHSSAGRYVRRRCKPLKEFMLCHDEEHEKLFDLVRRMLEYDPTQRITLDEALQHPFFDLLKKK

Tests used:
CLK2 [1] = target: T1, CLK2 (Homo sapiens, UniProt P49760); experiment: Z'-LYTE activity assay (ThermoFisher SelectScreen); conditions: read-out: Z'LYTE Ki CLK2; [ATP] = Kmapp
Source text: (§1) In vitro biochemical assays. Several small molecule assays were outsourced to SelectScreen Services (ThermoFisher) for STK33 and for off-target kinases (data sets are available on demand).
(§2) These assays are LanthaScreen (binding assay) and Z’-LYTE (activity assay). Dose-responses were done with at least 5 different concentrations in duplicates, and parameters were optimized by calculations described below and provided with standard errors. […]
(§3) Calculation of Ki values for kinase inhibitors from Z’-LYTE inhibition data. The Morrison equation with [ATP] = Kmapp for competitive inhibition (GraphPad Prism 7, San Diego, CA) was used to get Ki values. Since Kd and Ki values are defined the same way, in other words, Kd = [E] [I] / [EI] = Ki, Kd and Ki values can be compared. […]

CLK1 [2] = target: T2, CLK1 (Homo sapiens, UniProt P49759); experiment: Z'-LYTE activity assay (ThermoFisher SelectScreen); conditions: read-out: Z'LYTE Ki CLK1; [ATP] = Kmapp
Source text: as §1, §2, §3

RET [3] = target: T3, RET (Homo sapiens, UniProt P07949); experiment: Z'-LYTE activity assay (ThermoFisher SelectScreen); conditions: read-out: Z'LYTE Ki RET; [ATP] = Kmapp
Source text: as §1, §2, §3

STK33 [4] = target: T4, STK33 (Homo sapiens, UniProt Q9BYT3); conditions: read-out: reported IC50 in biochemical assays; cited from earlier work
STK33 [5] = target: T4, STK33; experiment: NanoBRET target engagement intracellular kinase assay; conditions: read-out: NanoBRET IC50 STK33; HEK293 cells, 2 hours incubation
Method: (§4) NanoBRET Target Engagement intracellular kinase assay. HEK293T cells were cultured in […]
(§5) The cell line underwent authentication by short tandem repeat (STR) profiling at Cytogenetics and Cell Authentication Core (CCAC) at MD Anderson Cancer Center. NanoBRET Target Engagement intracellular kinase assay, K-10 assay (Cat. # N2641), K-9 assay (Cat. # N2631), transfection reagent FuGENE HD (Cat. # E2311), transfection carrier DNA (Cat. # E4881), NanoLuc-STK33 fusion vector (Cat. # NV2111), NanoLuc-RET fusion vector (Cat. # NV1951), NanoLuc-CLK1 fusion vector (Cat. # NV1131), NanoLuc-CLK2 fusion vector (Cat. # NV1141), and NanoLuc-CLK4 fusion vector (Cat. # NV1151) were purchased from Promega. The measurement of test compound engagement with cellular target protein was performed in a 384-well format according to manufacturer’s instructions. HEK293 cells were transiently transfected with NanoLuc (STK33, RET, CLK1, CLK2, and CLK4) fusion vectors. After 36 hours of transfection, cells were treated with a fixed concentration of tracer (recommended by Promega) followed by compounds (inhibitors) for 2 hours of incubation. To determine the test compound […]
(§6) 0.4 nM at a fixed tracer concentration. Staurosporine was measured in parallel as a positive control.
(§7) Freshly prepared NanoBRET Nano-Glo substrate plus extracellular NanoLuc inhibitor was then added to initiate the subsequent bioluminescence resonance energy transfer (BRET) measurements using a CLARIOstar Plus BMG LABTECH plate reader. Data analysis was done by measuring the ratio of acceptor emission to donor emission (BRET ratio) and normalized by subtracting no-tracer-control-background. IC50 values were obtained by nonlinear regression using a four-parameter equation in GraphPad Prism 7 (San Diego, CA).

CLK2 [6] = target: T1, CLK2; experiment: as above; conditions: read-out: NanoBRET IC50 CLK2; HEK293 cells, 2 hours incubation
Method: as §4, §5, §6, §7

CLK1 [7] = target: T2, CLK1; experiment: as above; conditions: read-out: NanoBRET IC50 CLK1; HEK293 cells, 2 hours incubation
Method: as §4, §5, §6, §7

CLK4 [8] = target: T5, CLK4 (Homo sapiens, UniProt Q9HAZ1); experiment: as above; conditions: read-out: NanoBRET IC50 CLK4; HEK293 cells, 2 hours incubation
Method: as §4, §5, §6, §7

RET [9] = target: T3, RET; experiment: as above; conditions: read-out: NanoBRET IC50 RET; HEK293 cells, 2 hours incubation
Method: as §4, §5, §6, §7

STK33 [10] = target: T4, STK33; experiment: LanthaScreen binding assay (ThermoFisher SelectScreen); conditions: read-out: LanthaScreen Kd STK33
Source text: as §1
(§8) These assays are LanthaScreen (binding assay) and Z’-LYTE (activity assay). Dose-responses were done with at least 5 different concentrations in duplicates, and parameters were optimized by calculations described below and provided with standard errors.
(§9) Calculation of Kd values for kinase inhibitors that bind to the ATP pocket of a kinase from LanthaScreen binding data. DynaFit (71) was used to fit complex equilibria where a tracer is displaced by a dilution series of a kinase inhibitor. This method relies on the concentration of inhibitor, as well as the concentration of kinase and tracer, and Kd of the tracer. The latter three parameters are tabulated by ThermoFisher for each kinase in the LanthaScreen assay panel. […]
Since Kd and Ki values are defined the same way, in other words, Kd = [E] [I] / [EI] = Ki, Kd and Ki values can be compared. […]

CLK4 [11] = target: T5, CLK4; experiment: as above; conditions: read-out: LanthaScreen Kd CLK4
Source text: as §1, §8, §9

| pKi (CLK2 [1]) | pKi (CLK1 [2]) | pKi (RET [3]) | pIC50 (STK33 [5]) | pIC50 (CLK2 [6]) | pIC50 (CLK1 [7]) | pIC50 (CLK4 [8]) | pIC50 (RET [9]) | pKd (STK33 [10]) | pKd (CLK4 [11]) | SMILES | pIC50 (STK33 [4]) |
| --- | --- | --- | --- | --- | --- | --- | --- | --- | --- | --- | --- |
| 8.06 | 8.66 | 8.59 | 6.12 | 6.70 | 6.39 | 7.39 | 6.02 | 8.77 | 8.92 | COc1ccc(-n2ncc3cnc(Nc4ccc(N5CCN(C)CC5)c(OC)c4)nc32)cc1 | 8.15 |
| < 6.00 | < 6.00 | 7.34 | 4.93 | < 4.40 | < 4.40 | < 4.40 | < 4.40 | 8.92 | < 6.00 | CC(=O)NC[C@@H]1C[C@@H](NS(=O)(=O)c2cccc3cncc(C)c23)CN1 | 7.96 |
